This is a selection: effects in other tests are not listed, and their absence says nothing.
How the values were obtained:
[1] = Testing of stability of solution: concentrated to 45% and stirred at 23° C. for 5 days; conditions: concentrated to 45% solids content, stirred at 23° C. over 5 days
Experimental: (§1) 2. Testing of Stability of Solution
50 ml of an aqueous solution according to 1.2 were concentrated to 45% solids content and then stirred at 23° C. over a period of time of 5 days. No precipitate formation could be observed.
For comparison purposes, MGDA-Na3 was synthesized by reacting acetaldehyde and hydrocyanic acid with iminodiacetonitrile, HN(CH2CN)2, in a molar ratio of 1:1:1 followed by subsequent saponification of the nitrile groups with a stoichiometric amount of NaOH as aqueous sodium hydroxide solution. The NH3 formed during the reaction was continuously removed by stripping. The volume of the reaction mixture was kept constant by repeated addition of water. A 40% by weight aqueous solution of […] was obtained. Said solution was concentrated to 45% by weight and then stirred at 23° C. over a period of time of 5 days. A significant turbidity could be observed.

[2] = Testing of stability of solution: petri dish at 50° C., 60% relative humidity for 48 hours; conditions: 10 ml in a petri dish
Experimental: as §1
10 ml of an aqueous solution according to 1.2 were placed in a petri dish and left under the following conditions for 48 hours: 50° C., 60% relative humidity. After this period of time, aqueous solution according to 1.2 was still a clear solution.
10 ml of the above comparative solution were placed in a petri dish and left under the following conditions for 48 hours: 50° C., 60% relative humidity. After this period of time, significant precipitation could be observed.

racemic MGDA-Na3
precipitate formation / turbidity of the aqueous solution [1]: significant turbidity | appearance of the aqueous solution (clear / precipitation) after storage [2]: significant precipitation
